The results in this text go back to US11919896B2, “[1,2,4]triazolo[1,5-a]pyridine compound as JAK inhibitor and use thereof” (Zhuhai United Laboratories Co., Ltd., priority 2018, dated 2024).

Each structure is given as a SMILES string. “And” between values parts separate entries of the source, which are not always exact repeats. Identical values can stand only once. Like-named read-outs stand apart in the source and are kept apart here.

The nature of data set [1]: Pharmacokinetics (PK) test in mice. The format is in vivo, mice (C57BL/6). Conditions: male C57BL/6 mice; iv 2 mg/kg, intragastric 15 mg/kg.
For data set [2], the system named is collagen-induced arthritis (CIA) in mice. Type of data set: in vivo, DBA/1 mice. More on the design: key to Average clinical score: score 0-4 per limb, max 16 per animal. The note with it: 15 mg/kg p.o. bid.

In the case of `O=C(Nc1nc2cccc(C3CCC4(CC3)CCN(C(=O)[C@@H]3CC3(F)F)CC4)n2n1)C1CC1`, the AUC0-inf in data set [1] came out at 17.969 µM·h. For the same compound, in data set [2], the “Inhibition rate (clinical score AUC vs blank group)” value came to 48.6%. In data set [2] (administration period), the “AUC ± SEM of clinical score (AUC of incidence)” value came to 26.63 ± 4.57. Further, the Average clinical score amounted to 0.00 ± 0.00 in data set [2] (day 21); 0.00 ± 0.00 in data set [2] (day 24); 0.50 ± 0.19 in data set [2] (day 27); 0.63 ± 0.26 in data set [2] (day 28); 0.75 ± 0.25 in data set [2] (day 29); 1.00 ± 0.33 in data set [2] (day 31). The Average clinical score in data set [2] (day 34) was 1.63 ± 0.38; in data set [2] (day 36), 2.50 ± 0.46; in data set [2] (day 38) it was 3.13 ± 0.58; in data set [2] (day 41) it was 3.0 and 3.00 ± 0.60. The Incidence of arthritis in data set [2] (day 21) came to 0%; in data set [2] (day 24) it was 0%; in data set [2] (day 27), 50%; in data set [2] (day 28), 50%; in data set [2] (day 29), 63%; in data set [2] (day 31), 75%. For the same compound, the Incidence of arthritis came to 88% in data set [2] (day 34), 100% in data set [2] (day 36), 100% in data set [2] (day 38) and 100% in data set [2] (day 41).
